Test results reported in patent US7217794B2, “Compounds and methods for treatment of thrombosis” (Daiamed, Inc., priority 2003, dated 2007).
Where two headings read alike, the source gives them in different places. One block for each compound: values may come before it.

Amino acid sequences for entries named in this document (tags omitted). Residues count along the entry.
UniProt P03951, 388-625 limits assumed: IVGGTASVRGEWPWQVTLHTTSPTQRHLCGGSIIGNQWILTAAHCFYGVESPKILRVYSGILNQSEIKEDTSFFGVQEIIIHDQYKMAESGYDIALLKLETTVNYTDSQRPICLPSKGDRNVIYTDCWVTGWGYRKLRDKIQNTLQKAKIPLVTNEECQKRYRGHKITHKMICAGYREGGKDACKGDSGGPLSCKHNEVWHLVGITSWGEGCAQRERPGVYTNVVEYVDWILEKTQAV
UniProt P03951, 19-387 partner limits assumed: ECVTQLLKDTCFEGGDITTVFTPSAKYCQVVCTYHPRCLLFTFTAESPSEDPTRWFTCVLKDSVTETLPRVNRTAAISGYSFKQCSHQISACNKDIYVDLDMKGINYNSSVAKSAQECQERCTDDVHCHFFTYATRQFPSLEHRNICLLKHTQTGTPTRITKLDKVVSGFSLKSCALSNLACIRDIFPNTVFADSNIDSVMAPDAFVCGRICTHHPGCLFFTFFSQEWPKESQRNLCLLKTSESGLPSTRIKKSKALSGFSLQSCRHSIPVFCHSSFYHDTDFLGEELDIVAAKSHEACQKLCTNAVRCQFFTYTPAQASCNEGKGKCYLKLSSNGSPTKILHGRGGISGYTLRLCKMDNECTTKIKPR
UniProt P00742, 235-488 limits assumed: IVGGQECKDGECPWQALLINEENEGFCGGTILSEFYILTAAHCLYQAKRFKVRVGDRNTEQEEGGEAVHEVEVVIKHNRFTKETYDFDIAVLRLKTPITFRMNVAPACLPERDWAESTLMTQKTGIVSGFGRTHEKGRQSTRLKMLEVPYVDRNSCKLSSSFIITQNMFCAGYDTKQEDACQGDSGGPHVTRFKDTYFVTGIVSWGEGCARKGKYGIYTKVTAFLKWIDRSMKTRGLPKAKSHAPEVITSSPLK
UniProt P00742, 41-179 partner limits assumed: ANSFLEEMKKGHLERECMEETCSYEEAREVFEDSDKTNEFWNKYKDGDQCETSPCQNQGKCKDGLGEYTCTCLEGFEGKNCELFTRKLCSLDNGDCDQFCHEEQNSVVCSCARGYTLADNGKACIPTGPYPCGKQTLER

What was measured:
native Factor XIa = native Factor XIa (Homo sapiens, UniProt P03951); experiment: Factor XIa enzyme inhibition assay (fluorogenic substrate pyroGlu-Pro-Arg-AMC); format: biochemical; settings: read-out: FXIa IC50
Factor Xa = Factor Xa (Homo sapiens, UniProt P00742); experiment: Factor Xa enzyme inhibition assay (purified enzyme); settings: read-out: FXa IC50
thrombin = thrombin (Homo sapiens, UniProt P00734); experiment: Thrombin enzyme inhibition assay (purified enzyme); settings: read-out: thrombin IC50
[1] = Table 13, pyrimidinone compounds of formula I
[2] = Table 14, tested form: trifluoroacetate
[3] = Table 14, compounds of formula II

IC50 (native Factor XIa; Table 14, compounds of formula II, tested form: trifluoroacetate): 76 nM | IC50 (Factor Xa; [2]): 1190 nM | IC50 (thrombin; [2]): 30700 nM
Compound: Cc1c(O)cccc1C(=O)Nc1cc(C(=O)NCc2ccccc2)cc2ccc(C(=N)N)cc12

IC50 (native Factor XIa; [3]): 700 nM | IC50 (Factor Xa; Table 14): 3200 nM | IC50 (thrombin; Table 14): 58500 nM
Compound: Cc1c(O)cccc1C(=O)Nc1cccc2ccc(C(=N)N)cc12

IC50 (native Factor XIa; [3]): 571 nM | IC50 (Factor Xa; Table 14): 7900 nM | IC50 (thrombin; Table 14): 16300 nM
Compound: Cc1c(O)cccc1C(=O)Nc1cc(C(=O)NCC(C)C)cc2ccc(C(=N)N)cc12

IC50 (native Factor XIa; [3]): 609 nM | IC50 (Factor Xa; Table 14): 41200 nM | IC50 (thrombin; Table 14): 163000 nM
Compound: N=C(N)c1ccc2cccc(NC(=O)c3cccc(S(=O)(=O)OCCCO)c3)c2c1

Continued, compound first:

Compound: CC(C)Nc1cnc(-c2ccc3ccccc3c2)n(CC(=O)N[C@@H](CCCNC(=N)N)C(=O)c2nccs2)c1=O
IC50 (native Factor XIa; [1]): 1030 nM | IC50 (Factor Xa; Table 13): 391 nM | IC50 (thrombin; Table 13): 14200 nM

Compound: COC(=O)c1cc(NC(=O)c2cccc(O)c2C)c2cc(C(=N)N)ccc2c1
IC50 (native Factor XIa; [3]): 111 nM | IC50 (Factor Xa; Table 14): 2620 nM | IC50 (thrombin; Table 14): 7450 nM

Compound: Cc1cccc(-c2ncc(NCc3ccccc3)c(=O)n2CC(=O)N[C@@H](CCCNC(=N)N)C(=O)c2nccs2)c1
IC50 (native Factor XIa; [1]): 612 nM | IC50 (Factor Xa; Table 13): 470 nM | IC50 (thrombin; Table 13): 65 nM
